Data as given in PubChem BioAssay AID488924 (Johns Hopkins Ion Channel Center, 2010).
This is a selection; strong and weak results do not stand in their true shares. The source made the active and inactive calls.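 The calls were made as follows: active = membrane potential signal moves up or down beyond 5 SD from buffer-only wells, on both duplicate plates; inactive = the rest.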

Assay: parental HEK293 membrane potential modulation, confirmation, counter-screen for TRPC6 modulator project, cell-based (AID 488924)
Details: parental HEK293, membrane potential dye fluorescence; at 10 µM

| Compound | membrane potential signal change |
| --- | --- |
| CCN(CC)CC(O)COC(=O)C(O)(c1ccccc1)C1CCCCC1 (configuration not stated) | active: 106% |
| CCN(CC)CCCOC(=O)C(O)(c1ccccc1)c1ccccc1 | inactive |
